Tests used:
[1] = system: vasogenic cerebral edema caused by cold injury; experiment: Effect on experimental vasogenic cerebral edema (cold injury); format: in vivo, male Crj:CD (SD) rats; details: rats
Procedure: Using 42 male Crj:CD (SD) rats weighing 300 to 400 g, model animals of vasogenic cerebral edema caused by cold injury were prepared according to the method of Naruse et al. (Brain and Nerve, 33 (6): 569-575 (1981)). (Administration method)
Peptide (II) obtained in Reference Example 1 was diluted with a physiological saline so that the peptide concentration became […]. The solution containing the peptide was continuously administered to eleven rats through the tail vein thereof in an amount of […] of body weight so that the total dose of the administered peptide became 100 μg per kg of body weight, to thereby obtain a peptide (II)-administeredgroup.
Peptide (III) was administered to eight rats in the same manner as described above except that peptide (III) was used instead of peptide (II), to thereby obtain a peptide (III)-administered group.
As a control (solvent), 3 ml per kg of body weight of the physiological saline was administered to eleven rats in substantially the same manner as mentioned above, to thereby obtain a physiological saline-administered group.
As a control for the peptide, an aqueous 10% w/v glycerol solution containing 5% w/v fructose and 0.9% w/v sodium chloride was administered to twelve rats so that the total volume of the administered solution became 10 ml per kg of body weight, to thereby obtain a glycerol-administered group.
The administration of each of the peptide (II) solution, peptide (III) solution and physiological saline was started one hour before the making of cold injury and completed in 90 minutes. On the other hand, the administration of the glycerol solution was started 23 hours after the making of cold injury and completed in 30 minutes in accordance with the ordinary clinical method, so that the total volume of the administered glycerol solution became 10 ml/kg of body weight.
24 hours after the rats had been subjected to cold injury, rats were sacrificed under ether anesthesia. […]
The water content of each of the hemispheres was measured in substantially the same manner as in Example 1. […]

rats = experiment: 14-day toxicity in rats by intravenous administration; format: in vivo, Crj:CD (SD) SPF rats
Procedure: Peptide (II) having a purity of 98.3% which was obtained in Reference Example 1 was dissolved in a physiological saline to prepare three preparations having the peptide (II) concentrations of 0.025 mg/ml, 0.075 mg/ml and 0.25 mg/ml, respectively. As a control, the physiological saline was used.
100 Crj:CD (SD) SPF rats of 4 weeks old of both sexes (50 male rats and 50 female rats) were purchased from Charles River Japan, Inc., Japan. 40 Rats of each sex (males weighing 102.4 to 114.6 g and females weighing 92.9 to 104.2 g) which were healthy and in good conditions in respect of both the clinical signs and the body weight gain during about one-week observation period for the quarantine and the acclimation were selected and used for the following experiment.
The rats were divided at random into four groups each consisting of 10 male rats and 10 female rats. Three of the four groups are used for the treatment with peptide (II).
Each of the above-prepared three test drug solutions containing peptide (II) at concentrations of 0.025 mg/ml, 0.075 mg/ml and 0.25 mg/ml, respectively, was individually administered to the rats of the three groups at a dosage of 0.2 ml/100 g of body weight. That is, the peptide was administered to the rats of the three groups at dosages of 0.05 mg/kg, 0.15 mg/kg and 0.5 mg/kg of body weight, respectively. To the rats of the remaining group, physiological saline was administered as a control at a dosage of 0.2 ml/100 g of body weight. The administration of each of the test drug solutions and the physiological saline was conducted daily for 14 days through the tail vein of each rat (with the weekly alteration between the left side and right side tail veins) at an administration rate of 0.5 ml/sec (once a day at a time between 1:00 p.m. and 3:00 p.m.).
Each rat was observed 4 times a day to examine whether or not it was dead and/or any remarkable changes in clinical signs had occurred. The results were recorded.
The amounts of the food supplied and the food remaining were measured by means of a balance twice a week during the administration period, and the daily food consumption per animal was calculated.
The amount of water consumption was measured once a week during the administration period.
The individual body weight was measured on the first day of the administration and then twice a week during the administration period.
Each of the male and female rats of the control group and the highest dosage group (0.5 mg/kg of body weight) were subjected to examination of bilateral fundus oculi on the 11th administration day.
Samples of abdominal aorta blood were obtained from all of the rats on the day after the 14th administration day under ether anesthesia. One ml of each blood sample was transferred to an EDTA 2K tube (manufactured and sold by Toa Medical Electronics Co., Japan) and examined with respect to the following parameters using an automatic blood cell counter CC-108 (manufactured and sold by Toa Medical Electronics Co., Japan), automatic platelet counter PL-100 (manufactured and sold by Toa Medical Electronics Co., Japan) and automatic hemoglobinmeter HB-100 (manufactured and sold by Toa Medical Electronics Co., Japan): TE-400 (manufactured and sold by Erma Optical Works Ltd., Japan):
Samples of abdominal aorta blood were obtained from all of the rats on the day after the 14th administration day under ether anesthesia. An aliquot (one ml) of each blood sample was immediately transferred to a heparin-coated tube. Within ten minutes, the samples were centrifuged at 1000G at 4° C. for two minutes and the plasma was separated for analyses of lactate dehydrogenase, sodium, potassium and chloride. On the other hand, another aliquot (ten ml) of each blood sample was centrifuged at 1350G at 4° C. for 10 minutes after keeping it stand still for 15 to 90 minutes, to thereby obtain serum. Each serum was separated for analyses of the other parameters shown below. […]

cerebral edema = experiment: Anti-cerebral edema activity, rat cerebral edema testing system (general statement); details: in vivo
Excerpt: The anti-cerebral edema activity of the pharmaceutical composition of the present invention was confirmed by the rat cerebral edema testing system using the following two animal models:
(1) the Tamura's experimental model for ischemic cerebral edema, the middle cerebral artery of which model is constricted, and
(2) the cold injury model, which is generally used as an experimental model for vasogenic edema caused by the blood-brain barrier insufficiency.
The anti-cerebral edema activity can be evaluated by determining the water content of a brain tissue, since the cerebral edema is defined by "a symptom defined as an excessive accumulation of water in a brain tissue (including the inside and the outside of the brain cells)". The water content of a brain tissue can be directly determined by the dry-wet method.

[2] = 24 hours after cold injury, peptide 100 μg/kg tail vein started one hour before injury, 90 min, glycerol solution 10 ml/kg started 23 hours after injury
[3] = i.v. daily for 14 days, 0.05, 0.15 and 0.5 mg/kg

Structure (SMILES): CC[C@H](C)[C@@H]1NC(=O)[C@H](CCCNC(=N)N)NC(=O)[C@H](CC(=O)O)NC(=O)[C@H]([C@@H](C)CC)NC(=O)[C@H](CCCNC(=N)N)NC(=O)CNC(=O)CNC(=O)[C@H](Cc2ccccc2)NC(=O)[C@@H](NC(=O)[C@H](CO)NC(=O)[C@H](CO)NC(=O)[C@H](CCCNC(=N)N)NC(=O)[C@H](CCCNC(=N)N)NC(=O)[C@H](CC(C)C)NC(=O)[C@@H](N)CO)CSSC[C@@H](C(=O)N[C@@H](CC(N)=O)C(=O)N[C@@H](CO)C(=O)N[C@@H](Cc2ccccc2)C(=O)N[C@@H](CCCNC(=N)N)C(=O)N[C@@H](Cc2ccc(O)cc2)C(=O)O)NC(=O)CNC(=O)[C@H](CC(C)C)NC(=O)CNC(=O)[C@H](CO)NC(=O)[C@H](CCC(N)=O)NC(=O)[C@H](C)NC(=O)CNC1=O [Peptide (II)]
- Water content of brain tissue (the mean ± standard error), injured cerebral hemisphere [1, 2]: 80.44 ± 0.09
- Water content of brain tissue (the mean ± standard error), not injured cerebral hemisphere [1, 2]: 79.59 ± 0.08
- increase in water content of the injured cerebral hemisphere, compared to physiological saline-administered group ([1]; cold injury): markedly inhibited
- Blood biochemical examination (rats; [3]): No remarkable change
- Change in body weight (rats; [3]): No remarkable change
- Clinical signs (rats; [3]): No remarkable change
- Clinical signs: death of animals (rats; [3]): No dead animal
- Food consumption (rats; [3]): No remarkable change
- Hematological examination (rats; [3]): No remarkable change
- Histopathological examination (rats; [3]): No remarkable change
- Measurement of organ weight (rats; [3]): No remarkable change
- Patho-anatomical examination (rats; [3]): No remarkable change
- Urinalysis (24-hour urine volume) (rats; [3]): No remarkable change
- Water consumption (rats; [3]): No remarkable change
- Ophthalmic examination (rats; i.v. daily, highest dosage group 0.5 mg/kg, 11th administration day): No remarkable change
- anti-cerebral edema activity as compared to peptide (III) (cerebral edema): relatively high

From US5204327A, “Treatment of cerebral edema with ANP pharmaceutical compositions” (Ashi Kasei Kogyo Kabushiki Kaisha, priority 1988, dated 1993)
